Experimental data as given in patent publication US4661471A, “Method of inhibiting and inducing human platelet aggregation” (New England Deaconess Hospital, priority 1984, dated 1987).

Tested on: human platelets
Test: Aggregation of ADP-treated platelets separated from plasma proteins by the synthetic peptide-albumin conjugate, in the absence of fibrinogen
Assay type: cell-based
Conditions: 10^8 platelets, ten micromoles of ADP, no plasma proteins; 2.5 micromoles of conjugate
Protocol: In this experiment, a synthetic clumping molecule formed of a human serum albumin backbone having a plurality of sulfhydral-linked cysteinyl heptadecapeptides attached thereto was tested to determine whether it would cause aggregation of platelets. Ten micromoles of ADP was added to 10^8 platelets which had been separated from the plasma proteins.

Substance: human serum albumin: negative control: human serum albumin prepared the same way as the conjugate but lacking the heptadecapeptide side groups [reference compound]
- aggregation of platelets caused by the substance: not to aggregate the platelets
